{"source": "patent US20050038102A1", "about": "“Upregulation of type III endothelial cell Nitric Oxide Synthase by HMG-CoA reductase inhibitors” (BRIGHAM AND WOMENS HOSPITAL, priority 1997, published 2005)", "system": "human endothelial cell", "conditions": "after 36 h"}
{"smiles": "CC[C@H](C)C(=O)O[C@H]1C[C@@H](C)C=C2C=C[C@H](C)[C@H](CC[C@@H]3C[C@@H](O)CC(=O)O3)[C@H]21", "note": "[lovastatin]", "values": [{"measurement": "concentration causing cytotoxicity", "value": "> 50000", "unit": "µM"}]}
